Only a part is listed here, and it is no random draw. The source made the active and inactive calls. Calls follow the shape of the dose curve; as a rule, active = well fitted cell-killing curve with a large enough effect; inactive = no such curve, though single readings can be large or run the other way.
Potency is read from the fitted curve at half-maximal effect.

A short description of the assay: qHTS for Inhibitors of TGF-b: Cytotox Counterscreen. To be noted: HepG2 CAGA-GFP viability, ATP luminescence, 18 h; series mostly up to 46.1 µM; activity change, negative = cytotoxicity: at the top concentration. An excerpt: TGF-b is a main component in the TGF-b signaling pathway which plays diverse roles in cellular and development pathways. TGF-b is mediated by transcription factors called "Smads". Although the Smad-dependent pathway is the primary canonical TGF-b signaling mode, TGF-b1 can also activate alternative signaling pathways, including those involving MAPK (ERK, JNK and p38). This interaction may mediate or enhance Smad-dependent responses, or can exert Smad-independent effects. The complexity of this signaling cascade allows the TGF-b superfamily to perform unique, overlapping or redundant functions. We believe that targeting the TGF-beta pathway at the Smad-transcription factor level may eliminate the consequences of disrupting the entire pathway and offer specificity without affecting other signaling pathways. Smad3 is the primary transducer of TGF-b's signals and Smad3 regulates many functions attributed to TGF-b signaling. We hypothesize that Smad3 inhibitors will selectively eliminate Smad3-specific TGF-beta signals without undesired off-target effects. We aim to identify Smad3-small molecule antagonists using a quantitative high throughput screening (qHTS) approach.
A high-throughput assay was developed to screen the NIH Molecular Libraries Small Molecule Repository (MLSMR). This is a cell based assay, where TGF-b is tagged with GFP. This is a counterscreen that evaluates the cytotoxicity of the compounds that were screened in the primary cell-based screen (AID 588855).
MH087449NIH Chemical Genomics Center [NCGC]
NIH Molecular Libraries Probe Centers Network [MLPCN]
Assay Submitter (PI): Sushil Rane, National Institute of […]
Suspensions of trypsinized HEPG2 CAGA-GFP cells were dispensed into white, tissue culture-treated, solid 1536-well plates at 5uL/well (1000 cells/well final concentration) in DMEM medium supplemented with 1% FBS. Plates were incubated at 37 degrees C for 2 hours, after which 23 nL of compounds or DMSO were delivered to each well using a pin tool. One uL of recombinant TGF-beta in DMEM (1% FBS) was then dispensed (500 pg/mL final concentration), and plates were incubated at 37 degrees C for 18 hours. Two uL of CellTiter Glo (Promega), a luminescence-based viability reagent, was dispensed, followed by a 10 minute room temperature incubation. The plates were then measured on a PerkinElmer ViewLux plate reader for luminescence (clear filter) using a 5 second exposure. The %Activity was determined from the corrected luminescence values. Wells containing media only (no cells) were used to normalize %Activity of identified toxic compounds; media-only wells corresponded to 100%Activity (complete cell-killing), while DMSO-dosed cell controls were used to normalize 0%Activity (no toxicity).
Concentration-response curves were fitted to the signals arising from the resulting luminescence. The concentration-effect curves were then classified based on curve quality (r2), response magnitude and degree of measured activity, and compounds were subsequently categorized based on their curve class.
For orientation: Quantitative high-throughput screening tests each substance at several concentrations.
As for `CP(=O)(OCCOc1ccccc1)OCCOc1ccccc1`, the “activity change, negative = cytotoxicity” value was inactive: -36.1%.

On to `CP(=O)(Nc1ccc(Cl)cc1Cl)Oc1ccccc1` (stereo not drawn), for which the “activity change, negative = cytotoxicity” value was inactive: -5.62%.

As for `CCCCCCCCCCCCCCCC1C[N+](C)(C)CCOP(C)(=O)O1` (stereo not drawn), the “activity change, negative = cytotoxicity” value is inactive: -64.8%.

For the compound `Cc1cc(C)cc(OP(C)(=O)Nc2cccc(C(F)(F)F)c2)c1` (stereo not drawn), the “activity change, negative = cytotoxicity” value was inactive: -21%.

With `COc1ccc(OP(C)(=O)Nc2ccccc2Br)cc1` (stereo not drawn), the “activity change, negative = cytotoxicity” value was inactive: 1.92%.

For the compound `COc1ccccc1OP(C)(=O)Nc1ccc(C)c(C)c1` (stereo not drawn), the “activity change, negative = cytotoxicity” value is inactive: 17.8%.

Take `O=[N+]([O-])c1cc([N+](=O)[O-])c(Nc2ccccn2)c([N+](=O)[O-])c1`: the Potency is active: 10 µM.

Turning to `Cc1c(NP(C)(=O)Oc2ccc(C(C)C)cc2)c(=O)n(-c2ccccc2)n1C` (stereo not drawn), the “activity change, negative = cytotoxicity” value was inactive: 6.92%.

Turning to `CCc1ccc(OP(C)(=O)O)cc1`, the “activity change, negative = cytotoxicity” value is inactive: -0.536%.

As for `CP(=O)(Nc1ccccn1)Oc1ccccc1` (stereo not drawn), the “activity change, negative = cytotoxicity” value is inactive: -4.4%.

For the compound `COc1ccccc1OP(C)(=O)Nc1ccc(C)cc1C` (stereo not drawn), the “activity change, negative = cytotoxicity” value was inactive: -19.5%.

Consider `COc1ccccc1OP(C)(=O)Nc1ccc(Br)cc1` (stereo not drawn), for which the “activity change, negative = cytotoxicity” value is inactive: 18.9%.

For the compound `CN(C)CCOC(=O)C(O)(c1ccccc1)C1CCCC1` (stereo not drawn), the “activity change, negative = cytotoxicity” value was inactive: 7.13%.

Regarding `COc1ccc(OP(C)(=O)Nc2ccccn2)cc1` (stereo not drawn), the “activity change, negative = cytotoxicity” value is inactive: 0.366%.

Take `CP(=O)(Nc1ccc(Cl)cc1)Oc1ccc(F)cc1` (stereo not drawn): the “activity change, negative = cytotoxicity” value was inactive: -5.27%.

With `CC(C)(C)c1ccc(OP(C)(=O)O)cc1`, the “activity change, negative = cytotoxicity” value is inactive: 0.655%.

For the compound `COc1ccccc1OP(C)(=O)Nc1ccccc1Br` (stereo not drawn), the “activity change, negative = cytotoxicity” value was inactive: -30.3%.

For the compound `CN(C)C(=O)c1c([N+](=O)[O-])cc([N+](=O)[O-])cc1[N+](=O)[O-]`, the Potency was active: 11.2 µM.

As to `CCN(CC)CC(O)COC(=O)C(O)(c1ccccc1)C1CCCCC1` (stereo not drawn), the “activity change, negative = cytotoxicity” value was inactive: -15.2%.

Take `COc1ccc(OP(C)(=O)Nc2ccc(Br)cc2)cc1` (stereo not drawn): the “activity change, negative = cytotoxicity” value was inactive: -71.7%.

As for `CP(=O)(Oc1ccccc1)N1CCOC1=O` (stereo not drawn), the “activity change, negative = cytotoxicity” value was inactive: 19.9%.

Consider `CCc1ccc(OP(C)(=O)Nc2cccnc2)cc1` (stereo not drawn), for which the “activity change, negative = cytotoxicity” value was inactive: -2.57%.

As to `COc1ccccc1OP(C)(=O)Nc1c(C)n(C)n(-c2ccccc2)c1=O` (stereo not drawn), the “activity change, negative = cytotoxicity” value is inactive: 9.16%.

For `O=C(OCCCN1CCCC1)C(O)(c1ccccc1)C1CCCCC1` (stereo not drawn), the “activity change, negative = cytotoxicity” value is inactive: 1.97%.

`Nc1ccc2c(ccc3cccnc32)n1.O=[N+]([O-])c1cc([N+](=O)[O-])c(O)c([N+](=O)[O-])c1`: the “activity change, negative = cytotoxicity” value is inactive: -57.9%.

For `CP(=O)(OC12CC3CC(CC(C3)C1)C2)OC12CC3CC(CC(C3)C1)C2`, the “activity change, negative = cytotoxicity” value is inactive: -21.1%.

Turning to `CCOC(=O)c1ccc(NP(C)(=O)Oc2ccc(Cl)cc2)cc1` (stereo not drawn), the “activity change, negative = cytotoxicity” value is inactive: -14.7%.

Regarding `Cc1cc(-c2cccc3ccccc23)c(C)cn1.O=[N+]([O-])c1cc([N+](=O)[O-])c(O)c([N+](=O)[O-])c1`, the “activity change, negative = cytotoxicity” value was inactive: -1.84%.

For the compound `O=[N+]([O-])c1ccc(OP2(=O)COCCO2)cc1` (stereo not drawn), the “activity change, negative = cytotoxicity” value was inactive: -16.7%.

Turning to `Cc1c(C(c2ccc3c(c2)OCO3)c2c(C)n(C)n(-c3ccccc3)c2=O)c(=O)n(-c2ccccc2)n1C.O=[N+]([O-])c1cc([N+](=O)[O-])c(O)c([N+](=O)[O-])c1`, the “activity change, negative = cytotoxicity” value is inactive: 5.14%.

As to `COc1ccc(OP(C)(=O)Nc2cccc(Br)c2)cc1` (stereo not drawn), the “activity change, negative = cytotoxicity” value was inactive: -25.6%.

For the compound `COc1ccc(NP(C)(=O)Oc2ccccc2OC)cc1` (stereo not drawn), the “activity change, negative = cytotoxicity” value was inactive: 8.15%.

For the compound `CN(C)CCOC(=O)C(O)(c1ccccc1)C1CCCCC1` (stereo not drawn), the “activity change, negative = cytotoxicity” value is inactive: -15.2%.

Consider `CP(=O)(Nc1ccc2c(c1)OCCO2)Oc1ccccc1` (stereo not drawn), for which the “activity change, negative = cytotoxicity” value was inactive: -47.9%.

For the compound `Cc1ccccc1NP(C)(=O)Nc1ccccc1C`, the “activity change, negative = cytotoxicity” value was inactive: 3.2%.

On to `CP(=O)(Nc1ccc(SC(F)(F)F)cc1)Oc1ccc(F)cc1` (stereo not drawn), for which the “activity change, negative = cytotoxicity” value was inactive: -56.7%.

Turning to `CCOP(C)(=S)SCC(=O)NC(C)(CC)C(=O)O` (stereo not drawn), the “activity change, negative = cytotoxicity” value is inactive: 1.66%.

Consider `O=C(OCCN1CCN(CCOCc2ccccc2)CC1)C(O)(c1ccccc1)c1ccccc1`, for which the “activity change, negative = cytotoxicity” value is inactive: -13.1%.

Take `CC(C)c1ccc(OP(C)(=O)Nc2ccc(SC(F)(F)F)cc2)cc1` (stereo not drawn): the “activity change, negative = cytotoxicity” value was inactive: -100%.

As to `CP(=O)(Nc1ccccc1F)Oc1ccccc1` (stereo not drawn), the “activity change, negative = cytotoxicity” value was inactive: -0.674%.

For `CCN(CC)CCCOC(=O)C(O)(c1ccccc1)C1CCCCC1` (stereo not drawn), the “activity change, negative = cytotoxicity” value is inactive: -19.2%.

For `Cc1c([N+](=O)[O-])cc([N+](=O)[O-])c(Br)c1[N+](=O)[O-]`, the “activity change, negative = cytotoxicity” value is inactive: 0.998%.

For `CCCCCOc1ccc(NP(C)(=O)Oc2ccc(Cl)cc2Cl)cc1` (stereo not drawn), the Potency was active: 20 µM.

Source of the values: PubChem BioAssay AID588856 (National Center for Advancing Translational Sciences (NCATS), 2011).
